# scFv variants of Ab-14 (heavy chain) against a SARS-CoV-2 spike peptide

From the AlphaSeq antibody data of Li et al. 2023 (doi:10.1038/s41467-023-39022-2), copy in the FLAb collection.

All variants were tested on one target, the spike HR2 peptide PDVDLGDISGINAS (SARS-CoV-2).

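The variants were designed computationally from a first round of random CDR variants and then made and measured. Several design methods are mixed in this list. AlphaSeq pools MATa yeast showing the antibodies with MATalpha yeast showing the peptide. Pairs that bind mate more often; barcode pairs of the diploids are counted by sequencing. Scores were corrected for input abundance and mapped to Kd with protein pairs of known affinity run in the same pool. Mating was done six times.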

Parent: Ab-14, a human scFv built as VH, three GGGGS repeats, VL. Only the CDRs of the heavy chain vary.
VH: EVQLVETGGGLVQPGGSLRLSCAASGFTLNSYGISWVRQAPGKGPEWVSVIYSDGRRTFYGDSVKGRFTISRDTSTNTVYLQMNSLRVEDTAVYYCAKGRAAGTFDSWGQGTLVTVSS
VL: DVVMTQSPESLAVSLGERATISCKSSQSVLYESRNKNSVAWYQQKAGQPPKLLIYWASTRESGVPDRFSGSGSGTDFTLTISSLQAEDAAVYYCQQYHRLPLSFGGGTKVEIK

Each variant is given by its three heavy chain CDRs, as the data file delimits them; those of the parent are GFTLNSYGIS, VIYSDGRRTFYGDSVK, GRAAGTFDS.
Variants here have at most six changes.
The read-out is the apparent dissociation constant on a log10 scale (nM): the lower, the stronger.
Replicates are averaged; those with no signal do not enter the mean.
"ND" means that the variant was in the library but no mating with the target was seen in that replicate; the authors take this as a sign of poor binding, and no number exists.
Empty control strains, which show no peptide, gave a signal in 1% of pairings with all heavy chain designs; the median was 2.08 and 95% of these signals were weaker than 0.84. No background was subtracted.
The authors averaged sequences with at least three values out of six and counted those with two or fewer as poor binders.
A sequence measured in both rounds can read differently, since the two assays cover different ranges.
Of ten entries with the parent sequence, four were seen in most replicates (averages 0.34 to 2.37), three in one and three in none, so single entries are noisy.
Some sequences occur more than once in the pool; their replicates are listed entry by entry, parted by semicolons.

With GFSLNEYGIS / VIYSDGRRTFYGDSVK / GRCAGTFDS the result was 0.91, ND, 1.34, 2.42, 0.98, ND (mean 1.41). The variant GFTLNSYGAS / VIYSDGRRTFYSDSVK / GRAGGTFDS gave ND, ND, ND, ND, ND, ND. With GFTVNSYGIS / VIYSDGRRTFYGDSVK / GRLAFTFDS the result was ND, ND, ND, ND, ND, ND. For FWTLNEYGIS / VIYSDGRRTFYGDSVK / GRAKVTFDQ, the assay gave ND, ND, ND, ND, ND, ND. The variant GFNLNSYGIQ / IIYSDGRRTFYEDSVK / GRTAGTFDS showed ND, ND, ND, ND, ND, ND. For GFTLNSYGIS / VIYADGRRTFYGDSVK / GQAAGTFDS, the assay gave ND, ND, ND, 0.37, 0.33, ND (mean 0.35).

The variant GFTLDSYGIS / VIYSDGRRTFYTDEVK / GRAAGTFSS showed 2.51, 2.82, 1.19, 2.16, 1.96, 2.54 (mean 2.20). For GKSLNSYGIS / VIYSDGRRTFYSDSVK / GRTAGTFDS, the assay gave 1.89, 2.45, 1.31, 2.02, 1.93, 1.62 (mean 1.87). The variant GFTLNSYGIS / VIYSDGRRTFYGDSVK / GSAAGSFDS showed ND, ND, ND, ND, ND, ND. For GTTLNSYGIS / VIYADGRRTFYGDSVK / GRAKGTFDS, the assay gave ND, ND, ND, ND, ND, ND. The variant GFTLNDYGIS / VIYSDGRRTFYADSVK / GRAAGTFRS gave ND, ND, ND, ND, ND, ND. With YFTLNEYGIS / VIYSDGRRTFYSDSVK / GRAAGTFTS the result was ND, ND, ND, ND, ND, ND.

The variant GFTINSYGIS / VIYSDGLRTFYGDSVK / GRAALTFDS gave ND, ND, ND, ND, ND, ND. The variant GFDLNSYGIS / VIYSDGRRTFYGDSVK / GRTAGCFNS gave ND, ND, ND, ND, ND, ND. The variant GFDLNSYGIS / VIYSDGRRTFYGDQVK / GRTAGTFDV showed 1.23, -0.20, 0.11, -0.25, 1.42, 0.49 (mean 0.47). For GFKLNSYGIS / VIYSDGRRTFYADSVK / GKNAGTFDS, the assay gave ND, 1.40, ND, 0.49, ND, ND (mean 0.94). The variant GFTLNSYGIS / VIYSDGRRTFYGDSVK / GRKAGTFNS showed ND, ND, ND, ND, ND, ND. The variant GFTLNDYGIS / VIYSDGRRTFYGDSVK / GRNAGTFDT showed -0.06, 0.31, 0.53, 0.26, -0.06, -0.43 (mean 0.09).

The variant GFTLQSYGIS / VIYSDGRRTFYGDSVK / GRAAGTFNI showed ND, ND, ND, ND, ND, ND. The variant GFNLNSYGIS / VIYADGRRTFYADSVK / GRAAGTFDS showed -0.52, -1.04, -0.73, -0.40, -0.50, -0.85 (mean -0.67). With GFTFNSYGIS / VIYSDGRRWFYSDSVK / GRAGGTFDS the result was ND, ND, ND, ND, ND, ND. With GFTLNSYGIS / VIYSDGRRTFYGDSVK / GRSAGTFNS the result was ND, ND, ND, ND, ND, ND. The variant GFSLNSYGIS / VIYSDGRRTFYADSVK / GQAAGTFDS gave ND, ND, ND, ND, ND, 1.65. The variant GFTINMYGIS / VIYADGRRTFYGDSVK / GRAAGTFDS showed 0.81, 0.13, 0.00, 0.11, 0.09, 0.09 (mean 0.20).

For HFDLNSYGIS / VIYSDGRRTFYGDSVK / GRTAGTFDD, the assay gave ND, 1.43, 0.41, 0.41, 0.39, 2.08 (mean 0.94). For GFHLNSYGIS / VIYSDGRRTFYGDQVK / GKTAGTFDS, the assay gave ND, ND, ND, ND, ND, ND. The variant GFDLNTYGIS / VIYSDGKRTFYGDSVK / GRTAGTFDS showed -0.07, -0.12, -0.34, -0.33, -0.37, 0.02 (mean -0.20). The variant GFKLNEYGIS / VIYSDGKRTFYGDSVK / GRTAGTFDS showed -0.25, 0.39, -0.39, -0.32, 0.07, 0.02 (mean -0.08). The variant KFDLNSYGIS / VIYSDGRRTFYQDSVK / GRTAGTFDS showed 1.23, 0.33, 1.07, 0.65, 0.30, 1.61 (mean 0.86). For GFTLNDYGIS / VIYSDGRRTQYQDSVK / GRAAGTFDS, the assay gave ND, 2.65, ND, 0.97, 0.70, 2.44 (mean 1.69).

The variant GFTLNEYGIS / VIYSDGRRTFYTDSVK / GRAAGTFDK showed 0.69, 1.09, 0.62, 0.52, 0.61, 0.21 (mean 0.62). With GFTVNSYGIS / VIYSDGRRTFYSDSVK / GRNHGTFDS the result was ND, ND, ND, ND, ND, ND. The variant GFWLNDYGIS / VIYSDGRRTFYTDSVK / GRTAGTFDS gave 2.28, 1.87, ND, 1.24, 1.29, ND (mean 1.67). The variant GFWLNSYGIS / VIYSDGRRTFYADSVK / GNAAGTFDS gave ND, ND, ND, 1.98, 2.85, 1.36 (mean 2.06). The variant GFNLNSYGIS / VIYSDGRRTFYDDSVK / GRTAGTFDS showed 1.10, 0.85, 0.09, 0.72, 0.84, 0.27 (mean 0.65). The variant GFTLNDYGIS / VIYSDGRRTFYGDSVK / GRGAGAFDS showed ND, ND, ND, ND, ND, ND.

With GFNLNSYGIS / VIYSDGYRTFYGDSVK / GRAAGTSDS the result was ND, ND, ND, ND, ND, ND. For GFTLNDYGIS / VIYSDGRRTFYGDSVK / GRAAGTFWS, the assay gave ND, ND, ND, ND, ND, ND; ND, ND, ND, ND, ND, ND. With GFDLNSYGIS / VIYSDGRRTVYGDMVK / GREAGTFDS the result was -0.05, 0.85, -0.03, -0.39, -0.02, -0.07 (mean 0.05). With GFTLNSYGIS / VIYSDGLRTFYADSVK / GRTAGTFDS the result was 0.72, 0.59, 0.56, 0.41, 0.42, 0.70 (mean 0.57). The variant GFNLNEYGIS / VIYADGRRTFYADSVK / GGAAGTFDV gave -0.30, -0.23, -0.58, -0.72, -0.83, -0.93 (mean -0.60). For GFTLNEYGIS / VIYSDGRRTFYGDSVK / GNAAGFFDS, the assay gave ND, ND, ND, ND, ND, ND.

The variant GFWLNSYGIS / VIYADGRRTFYGDSVK / GTAAGTFDS gave 1.07, 2.02, 2.14, -0.28, 0.56, 1.57 (mean 1.18).

The first 5 variants above that were never detected:

CDR-H1	CDR-H2	CDR-H3	log10 Kd (nM) by replicate	log10 Kd (nM), mean
GFTLNSYGAS	VIYSDGRRTFYSDSVK	GRAGGTFDS	ND, ND, ND, ND, ND, ND	ND
GFTVNSYGIS	VIYSDGRRTFYGDSVK	GRLAFTFDS	ND, ND, ND, ND, ND, ND	ND
FWTLNEYGIS	VIYSDGRRTFYGDSVK	GRAKVTFDQ	ND, ND, ND, ND, ND, ND	ND
GFNLNSYGIQ	IIYSDGRRTFYEDSVK	GRTAGTFDS	ND, ND, ND, ND, ND, ND	ND
GFTLNSYGIS	VIYSDGRRTFYGDSVK	GSAAGSFDS	ND, ND, ND, ND, ND, ND	ND